# From US20220347323A1, “Positron Emission Tomography Guided Delivery of Mitochondral Complex I Inhibitors” (priority 2019, published 2022)
# How the values were obtained:
# L3161C lung tumors [1] = experiment: 18FBnTP PET of transthoracically implanted L3161C tumors in syngeneic mice; format: in vivo, mouse
# Experimental: (§1) Following resection, the tumor was minced and incubated in collagenase/dispase (Cat. #10269638001, Sigma) for 3 hr. Cells were filtered using a 70 μm strainer, centrifuged, resuspended in DMEM with 5% FBS and plated in a 6 cm dish. The following day media was changed and cells that attached were cultured. […] Two weeks after injections, mice were imaged by CT. Mice with similar sized tumors were used for ^18FBnTP imaging. For treatment studies, syngeneic mice were imaged with ^18FBnTP, and split into two groups (three groups for FIG. 3e) based on tumor maximum %ID/g, such that maximum %ID/g of tumors in both groups would be similar. Treatment was then initiated for the specified time. Mice were treated with a single dose of 0.25 mg/kg Oligomycin or 0.5 mg/kg Rotenone; both drugs were delivered by i.p. injection. For other studies mice were treated with 125 mg/kg/day phenformin or 500 mg/kg/day metformin for 5 days; both drugs were delivered by oral gavage in the morning. Following imaging, mice were euthanized and tissue was harvested. For some experiments, lungs were fixed with 10% NBF overnight; for other experiments lung tumor nodules were rapidly dissected, snap frozen in liquid nitrogen and stored in −80° C. freezer.
# (§2) In order to reduce variability between mice imaged with ^18FBnTP, maximum percent injected dose per gram (%ID/g) for each tumor was normalized to maximum %ID/g of heart as indicated in the figures. For waterfall plots in FIG. 2m and FIGS. 8e-8f, we calculated % change in the uptake of the ^18FBnTP probe post-treatment relative to pre-treatment using maximum %ID/g of the tumor that was normalized to maximum %ID/g of the heart for each mouse.
# L3161C-ND1 tumors = experiment: 18FBnTP PET of L3161C-ND1 and L3161C-vector tumors; format: in vivo, mouse; details: 125 mg/kg/day, 5 days
# Experimental: as §1, with “For other studies mice were treated with 125 mg/kg/day phenformin or 500 mg/kg/day metformin for 5 days; both drugs were delivered by oral gavage in the morning. Following imaging, mice were euthanized and tissue was harvested. For some experiments, lungs were fixed with 10% NBF overnight; for other experiments lung tumor nodules were rapidly dissected, snap frozen in liquid nitrogen and stored in −80° C. freezer.” left out
# as §2
# L3161C lung tumors [2] = experiment: CC3 and Ki67 histology of L3161C tumors; format: in vivo, mouse; details: 5 days treatment
# Experimental: as §1, with “For some experiments, lungs were fixed with 10% NBF overnight; for other experiments lung tumor nodules were rapidly dissected, snap frozen in liquid nitrogen and stored in −80° C. freezer.” left out
# After the fixation step in 10% neutral buffered formalin overnight, lungs were transferred to 70% ethanol and further processing and embedding was done by the TPCL at UCLA. […] Digital slides were analyzed with Definiens and QuPath software.
# L3161C-ND1 cells = experiment: Basal OCR in L3161C-ND1 versus L3161C-pBabe cells; format: cell-based, mouse; details: phenformin 24 hr
# Experimental: This experiment was repeated once. […] Experiments in e and f were preformed once.
# (§3) Experiments were conducted on a Seahorse XF96 Extracellular Flux Analyzer (Agilent Technologies) in order to measure oxygen consumption rate (OCR) and extracellular acidification rate (ECAR). […] On the day of the experiment, assay medium (Seahorse XF Base Medium supplemented with 2 mM L-glutamine, 1mM Pyruvate and 10 mM glucose) was freshly prepared. The cells were washed twice with assay medium and brought to a final volume of 175 μL per well. The XF96 plate was placed in a 37° C. incubator without CO2 for 30 minutes prior to loading the plate into the instrument. Injection of compounds during the assay included: the mitochondrial ATP Synthase inhibitor oligomycin (final concentration of 2 μM); the chemical uncoupler, FCCP (final concentration of 1 μM); and the Complex I inhibitors rotenone (final concentrations 2 μM) and phenformin (final concentration 1 mM) and Complex III inhibitor antimycin A (final concentrations of 2 μM). […] Activity of complex I was measured in permeabilized cells using XF PMP assay where complex I dependent OCR was measured by determining OCR in the presence of pyruvate and malate (as substrates for complex I) before and after addition of rotenone (complex I inhibitor).
# L3161C cells [3] = experiment: Mitochondrial membrane potential (ΔΨ) by TMRE flow cytometry, L3161C; format: cell-based, mouse
# Experimental: Experiments were conducted by analyzing TMRE fluorescence using flow cytometry. […] Cells were washed twice in phenol red free DMEM and cellular fluorescence was acquired with a BD LSRII analyzer at UCLA Flow Cytometry Core. Data was analyzed with Flowing Software.
# L3161C cells [4] = experiment: Respirometry (Seahorse OCR), L3161C; format: cell-based, mouse; details: 1 mM, 45 min
# Experimental: as §3
# L3161C cells [5] = experiment: In vitro 18FBnTP uptake assay, L3161C; format: cell-based, mouse; details: 8 μM oligomycin, 3 hr
# L3161C cells [6] = experiment: Viability of L3161C cells after acute treatment; details: oligomycin +/− FCCP, 3 hr
structure (smiles),measurement,setting,value
C=C(C)[C@H]1Cc2c(ccc3c2O[C@@H]2COc4cc(OC)c(OC)cc4[C@@H]2C3=O)O1 [rotenone],18FBnTP uptake in lung tumors after acute treatment,"L3161C lung tumors [1]; single i.p. dose (0.25 mg/kg oligomycin; 0.5 mg/kg rotenone), imaged 3-4 hr after",significantly reduced
[H]/N=C(/N)N/C(=N/[H])NCCc1ccccc1 [phenformin],18FBnTP uptake in ND1 expressing L3161C tumors vs vector tumors,L3161C-ND1 tumors,no loss
same,"apoptosis, cell death and tumor growth by CC3 and Ki67",L3161C lung tumors [2],"neither metformin nor phenformin induced apoptosis, cell death or significantly altered tumor growth"
same,OXPHOS (basal OCR) in L3161C-ND1 cells vs vector alone,L3161C-ND1 cells,maintained higher OXPHOS
same,ΔΨ measured by TMRE staining,L3161C cells [3]; short-term phenformin 3 hr,significantly reduced ΔΨ in a dose dependent manner
same,cellular OXPHOS (OCR) by respirometry,L3161C cells [4],significant reduction of cellular OXPHOS
CN(C)C(=N)N=C(N)N [metformin],inhibition of 18FBnTP uptake compared with phenformin,"L3161C lung tumors [1]; 500 mg/kg metformin vs 125 mg/kg phenformin, 5 days",slightly less inhibition
same,18FBnTP uptake in lung tumors,"L3161C lung tumors [1]; 500 mg/kg/day oral gavage, 5 days, vs vehicle",significantly reduced
same,"apoptosis, cell death and tumor growth by CC3 and Ki67",L3161C lung tumors [2],"neither metformin nor phenformin induced apoptosis, cell death or significantly altered tumor growth"
CC[C@H]1/C=C/C=C/C[C@@H](C)[C@H](O)[C@@](C)(O)C(=O)[C@@H](C)[C@H](O)[C@@H](C)C(=O)[C@@H](C)[C@H](O)[C@@H](C)/C=C/C(=O)O[C@@H]2[C@H](C)[C@H](CC1)O[C@]1(CC[C@H](C)[C@H](C[C@@H](C)O)O1)[C@H]2C [oligomycin],18FBnTP uptake (gamma counter),L3161C cells [5],significant increase
same,TMRE signal,"L3161C cells [3]; 8 μM oligomycin, 3 hr",significant increase
same,cell viability,L3161C cells [6],did not affect cell viability
